Laboratory results from PubChem BioAssay AID686979 (National Center for Advancing Translational Sciences (NCATS), 2013).
The entries are a selection whose mix differs from that of the whole data set. Inconclusive results are not listed. Entries that show only a call come without a potency. Active and inactive are the calls of the source. The call rests on the fitted dose curve; in most records, active means well fitted inhibition curve with a large enough effect; inconclusive means small, poorly fitted or top-dose-only effect; inactive means flat fitted curve, though single readings scatter.

assay: qHTS for Inhibitors of human tyrosyl-DNA phosphodiesterase 1 (TDP1): qHTS in cells in presence of CPT; conditions: chicken DT40 Tdp1-/-;hTDP1 cells + 20 nM CPT, ATP luminescence, 48 h; series mostly up to 46.2 µM; further: nearly all actives have a fitted effect of over 55% in size
Potency means the concentration at half of the fitted maximal effect.

Row | Compound | Potency
1 | CCC(C)N(CC(C)C)C(=S)SC(NC(C)=O)C(Cl)(Cl)Cl (stereo unspecified) | active: 1.03 µM
2 | CCOC(=O)c1ccc(NC(=O)C(C)(CCl)SC)cc1 (stereo unspecified) | inactive
3 | O=C(OC1CN2CCC1CC2)c1cccc([N+](=O)[O-])c1 (stereo unspecified) | inactive
4 | CSc1ccc(Nc2c([N+](=O)[O-])cc([N+](=O)[O-])cc2[N+](=O)[O-])cc1 | active: 3.66 µM
5 | O=C(COc1ccccc1)OC1CN2CCC1CC2 (stereo unspecified) | inactive
6 | O=C(Nc1ccncc1[N+](=O)[O-])c1ccc([N+](=O)[O-])cc1[N+](=O)[O-] | active: 14.6 µM
7 | COP1(=S)c2c(C)nn(CCC#N)c2N=C(c2ccc(F)cc2)N1C (stereo unspecified) | inactive
8 | COC(=O)C1(C)COP(=O)(N2CCCC2)OC1 (stereo unspecified) | inactive
9 | O=[N+]([O-])c1ccc(Nc2ccc(Oc3ccc([N+](=O)[O-])cc3[N+](=O)[O-])cc2)c([N+](=O)[O-])c1 | active: 7.31 µM
10 | O=P(Nc1ccccn1)(c1cccc2ccccc12)c1cccc2ccccc12 | inactive
11 | Cc1cc(SC(NC=O)C(Cl)(Cl)Cl)ncn1 (stereo unspecified) | active: 13 µM
12 | CCOC(=O)Nc1cccc([As](=O)(O)O)c1 | inactive
13 | CCCCOc1ccc(C(=O)NCC2(N3CCCCC3)CCCCC2)cc1OC | inactive
14 | COP(=O)(OC)N1CC1c1ccccc1 (stereo unspecified) | inactive
15 | CC1CCNP(=O)(N(CCCl)CCCl)O1 (stereo unspecified) | inactive
16 | CCOC(=O)Nc1ccc([As](=O)(O)O)c(O)c1 | inactive
17 | O=C(O)C(O)c1ccc(N(CCCl)CCCl)cc1 (stereo unspecified) | active: 2.91 µM
18 | CC(C)NC(=O)NP(=O)(Oc1ccccc1)Oc1ccccc1 | inactive
19 | O=C(OC1CN2CCC1CC2)c1cccc2[nH]cnc12 (stereo unspecified) | inactive
20 | CCN(CC)C(=S)SC(NC=O)C(Cl)(Cl)Cl (stereo unspecified) | active: 3.66 µM
21 | O=[N+]([O-])c1cc([N+](=O)[O-])c(-c2ccn[nH]2)s1 | active: 10.3 µM
22 | COC(=O)C1(C)COP(=O)(N2CCCCCC2)OC1 (stereo unspecified) | inactive
23 | ClCCSc1nnc(-c2cccnc2)o1 | inactive
24 | O=Cc1ccc(NCCCl)cc1 | active: 12.6 µM

Row | Compound | Potency
25 | Cc1ccc2nc3c(c(C)c2c1)CC(C(Cl)Cl)S3 (stereo unspecified) | inactive
26 | [N-]=[N+]=NC1CCCCC1NC(=O)c1cc([N+](=O)[O-])cc([N+](=O)[O-])c1 (stereo unspecified) | active: 6.51 µM
27 | Cc1ccc(OP(=O)(Nc2ccc([N+](=O)[O-])cn2)Oc2ccc(C)cc2)cc1 | inactive
28 | ClCCN(CCCl)c1ccc(CC2C=CC=C2)cc1 | active: 1.58 µM
29 | O=[As](O)(c1ccc(O)cc1)c1ccccc1O | inactive
30 | C[As](=O)(O)c1cccc(C(=O)O)c1 | inactive
31 | COc1cc(C(=O)NCC2(N3CCOCC3)CCCCC2)ccc1OCC(C)C | active: 9.2 µM
32 | COc1ccc(N/C(=N/P(=O)(N2CCOCC2)N2CCOCC2)N2CCOCC2)cc1 | inactive
33 | O=P1(N(CCCl)CCCl)OCCCN1CCCl (stereo unspecified) | inactive
34 | Cc1cc(=O)[nH]c(N[N+](=O)[O-])n1 | inactive
35 | COc1cc(C2NCCC3(OCCO3)C2(C)C)cc(OC)c1OC (stereo unspecified) | inactive
36 | CCOP(=O)(Nc1cccc2ccccc12)OCC | inactive
37 | CCCOP(=S)(Nc1nc(N)cc(=O)[nH]1)OCCC | inactive
38 | Nc1cccc2c([As](=O)(O)O)cccc12 | inactive
39 | Cc1ccc(NCCc2c([N+](=O)[O-])cc([N+](=O)[O-])cc2[N+](=O)[O-])cc1 | active: 16.4 µM
40 | Cc1cccc(OCC(=O)OC2CN3CCC2CC3)c1 (stereo unspecified) | inactive
41 | O=[As](O)(c1cccc(O)c1)c1cccc(O)c1 | inactive
42 | O=[As](O)(O)c1cccnc1 | inactive
43 | CS(=O)(=O)c1ccc(Cl)c(NC(=O)COC(=O)C(O)(c2ccccc2)c2ccccc2)c1 | inactive
44 | O=C(OC1CN2CCC1CC2)c1ccc(Cl)cc1 (stereo unspecified) | inactive
45 | O=[N+]([O-])c1ccc2c(c1)nnn2O | inactive
46 | CN(C)C(=O)c1cc([N+](=O)[O-])cc2c1-c1c(cc([N+](=O)[O-])cc1[N+](=O)[O-])C2=O | active: 2.06 µM
47 | CN(C(=O)Cc1ccc(Cl)c(Cl)c1)[C@H]1CC[C@@]2(CCCO2)C[C@@H]1N1CCCC1 | inactive
48 | N#CCCN(C(=O)COC(=O)C(O)(c1ccccc1)c1ccccc1)c1ccc(F)cc1 | inactive

Row | Compound | Potency
49 | CN(C(=O)Cc1ccccc1)[C@@H]1CC[C@]2(CCCO2)C[C@H]1N1CCCC1 | inactive
50 | CCOP1(=S)c2c(C)nn(CCC#N)c2N=C(c2ccc(F)cc2)N1C (stereo unspecified) | inactive
51 | NC(=O)Nc1ccc([As](=O)(O)O)cc1 | inactive
52 | Nc1ccccc1[As](=O)(O)c1ccccc1 | inactive
53 | O=C(O)COc1ccc([As](=O)(O)O)cc1[N+](=O)[O-] | inactive
54 | O=P(Nc1nccs1)(Oc1ccccc1)Oc1ccccc1 | inactive
55 | O=[As](O)(c1cccs1)c1cccs1 | inactive
56 | Cc1ccc(OCC(=O)OC2CN3CCC2CC3)cc1 (stereo unspecified) | inactive
57 | O=P1(Nc2ccc(Br)cn2)COc2ccccc2OC1 | inactive
58 | NS(=O)(=O)c1cccc(NC(=O)COC(=O)C(O)(c2ccccc2)c2ccccc2)c1 | inactive
59 | Nc1cccc([As](=O)(O)c2ccccc2)c1 | inactive
60 | O=P1(Nc2ncccn2)COc2ccccc2OC1 | inactive
61 | CCCC1OP(=O)(Nc2ccccc2)OCC1CC (stereo unspecified) | inactive
62 | CN(C)C1(CNC(=O)c2ccc(S(C)(=O)=O)cc2)CCCCC1 | inactive
63 | Cc1nn(-c2ccccc2)c2c1P(=O)(N1CCOCC1)N(C)C(c1ccccc1)=N2 (stereo unspecified) | inactive
64 | CC1CCC(C(C)C)C(OP(=O)(Nc2ccccn2)c2ccccc2)C1 (stereo unspecified) | active: 23.1 µM
65 | Cc1ccc(C(=O)OC2CN3CCC2CC3)cc1 (stereo unspecified) | inactive
66 | COc1cc([N+](=O)[O-])ccc1[N+](=O)[O-] | active: 11.2 µM
67 | CC(C)/C=N\N=C(\N)N[N+](=O)[O-] | inactive
68 | COc1ccccc1CNC(=O)COC(=O)C(O)(c1ccccc1)c1ccccc1 | inactive
69 | O=P1(N(CCCl)CCCl)NCCC(C(F)(F)F)O1 (stereo unspecified) | inactive
70 | Clc1n[nH]nc1-c1nn[nH][15n]1 | inactive
71 | CCOP(=O)(Nc1ccc(C)cn1)OCC | inactive
72 | CN(CCCl)Cc1cc(Cl)c(NC2=NCCN2)c(Cl)c1 | inactive

Row | Compound | Potency
73 | O=P1(Nc2ccccn2)COc2ccccc2OC1 | inactive
74 | CCC1=CC2Cc3nc4ccc(Cl)cc4c(N)c3C(C1)C2 (stereo unspecified) | active: 10.3 µM
75 | c1nnnn1CCn1cnnn1 | inactive
76 | CC(C)C(=O)NC(Sc1ccccc1)C(Cl)(Cl)Cl (stereo unspecified) | inactive
77 | O=P(Nc1nccs1)(c1ccccc1)c1ccccc1 | inactive
78 | C(Cc1nn[nH]n1)Cc1nn[nH]n1 | inactive
79 | Nc1ccc([As](=O)(O)c2ccc([N+](=O)[O-])cc2)cc1 | inactive
80 | O=C(OC1CN2CCC1CC2)c1cccc(Cl)c1 (stereo unspecified) | inactive
81 | O=[N+]([O-])c1ccc(O)c(/C=N/Nc2ccc([N+](=O)[O-])cc2[N+](=O)[O-])c1 | active: 5.17 µM
82 | O=[N+]([O-])c1ncn(CCn2cnc([N+](=O)[O-])n2)n1 | inactive
83 | CC(=O)NC(SC(=S)N(C)C)C(Cl)(Cl)Cl (stereo unspecified) | active: 0.92 µM
84 | O=[As](O)(c1ccccc1)c1ccc(O)cc1 | inactive
85 | O=P(Nc1nc2ccccc2s1)(c1ccccc1)c1ccccc1 | inactive
86 | C[C@H]1OP(=O)(Oc2ccccc2)[C@H](O)[C@H](O)[C@H]1N=[N+]=[N-] (stereo partly specified) | inactive
87 | CN(C(=O)Cc1ccccc1)[C@H]1CC[C@@]2(CCCO2)C[C@@H]1N1CCCC1 | inactive
88 | O=P(Nc1ccccn1)(c1ccc(Br)cc1)c1ccc(Br)cc1 | active: 29.1 µM
89 | CN(C)C1(CNC(=O)c2ccc(Cl)c(S(N)(=O)=O)c2)CCCCC1 | inactive
90 | O=c1c2cc([N+](=O)[O-])ccc2[nH]c2c([N+](=O)[O-])cc([N+](=O)[O-])cc12 | active: 0.411 µM
91 | CN(C)C(=O)Oc1noc2ccccc12 | inactive
92 | COC(=O)c1cc2c(s1)N=C(c1ccccc1)N(C)P2(=O)N1CCOCC1 (stereo unspecified) | inactive
93 | O=C(OC1CN2CCC1CC2)c1ccccc1 (stereo unspecified) | inactive
94 | CCC(=O)N1C2C3N(C(=O)CC)C1C1N(C(=O)CC)C(C(N1C(=O)CC)N3C(=O)CC)N2C(=O)CC | inactive
95 | O=P1(N(CCCl)CCCl)OCCC2CCCCN21 (stereo unspecified) | inactive
96 | CCNC(=S)/N=C(\N)N[N+](=O)[O-] | inactive

Row | Compound | Potency
97 | O=C(NC1CCS(=O)(=O)C1)NP(=S)(Oc1ccccc1)Oc1ccccc1 (stereo unspecified) | inactive
98 | c1ccc(-c2nn[nH]n2)c(-c2nn[nH]n2)c1 | inactive
99 | O=[N+]([O-])c1cc([N+](=O)[O-])c2nc[nH]c2c1 | active: 0.0794 µM
100 | Cc1ccc(NP(=O)(Oc2cccc(C)c2)Oc2cccc(C)c2)nc1 | inactive
101 | CC(=O)Nc1ccc([As](=O)(O)O)c(O)c1 | inactive
102 | N#C/C(=C\c1ccc(N(CCBr)CCBr)cc1)C(N)=O | active: 0.731 µM
103 | COC(=O)C1(C)COP(=O)(NCc2ccccc2)OC1 (stereo unspecified) | inactive
104 | C[C@H]1OP(=O)(Oc2ccccc2)C[C@@H]2O[C@@H]21 (stereo partly specified) | inactive
105 | C[C@@H]1C=CCP(=O)(Oc2ccccc2)O1 (stereo partly specified) | inactive
106 | CCc1cc(O)c([N+](=O)[O-])c(C)c1[N+](=O)[O-] | inactive
107 | CC(C)(C)C(=O)NC(Sc1ccccc1)C(Cl)(Cl)Cl (stereo unspecified) | inactive
108 | O=P1(Nc2nc3ccc(Cl)cc3s2)COc2ccccc2O1 (stereo unspecified) | inactive
109 | CCOc1ccc(C2=NCC(CBr)S2)cc1 (stereo unspecified) | inactive
110 | O=[N+]([O-])C1C(O)C(O)C([N+](=O)[O-])C(O)C1O (stereo unspecified) | inactive
111 | Nc1cc(N)c2nonc2c1[N+](=O)[O-] | inactive
112 | Oc1ccccc1CNc1ccccn1 | inactive
113 | O=C(NC(Sc1ccncn1)C(Cl)(Cl)Cl)c1ccccc1 (stereo unspecified) | inactive
114 | COc1ccccc1OP(=O)(Nc1ccc(C)cn1)Oc1ccccc1OC | inactive
115 | Cc1ccc(OP(=O)(Nc2nccs2)Oc2ccc(C)cc2)cc1 | inactive
116 | CN1CCCC(OC(=O)C(c2ccccc2)c2ccccc2)C1 (stereo unspecified) | inactive
